The values below come from PubChem BioAssay AID604 (The Scripps Research Institute Molecular Screening Center, 2007).

Chains of the proteins cited; added tags and fusions are not shown.
UniProt O75116, whole entry: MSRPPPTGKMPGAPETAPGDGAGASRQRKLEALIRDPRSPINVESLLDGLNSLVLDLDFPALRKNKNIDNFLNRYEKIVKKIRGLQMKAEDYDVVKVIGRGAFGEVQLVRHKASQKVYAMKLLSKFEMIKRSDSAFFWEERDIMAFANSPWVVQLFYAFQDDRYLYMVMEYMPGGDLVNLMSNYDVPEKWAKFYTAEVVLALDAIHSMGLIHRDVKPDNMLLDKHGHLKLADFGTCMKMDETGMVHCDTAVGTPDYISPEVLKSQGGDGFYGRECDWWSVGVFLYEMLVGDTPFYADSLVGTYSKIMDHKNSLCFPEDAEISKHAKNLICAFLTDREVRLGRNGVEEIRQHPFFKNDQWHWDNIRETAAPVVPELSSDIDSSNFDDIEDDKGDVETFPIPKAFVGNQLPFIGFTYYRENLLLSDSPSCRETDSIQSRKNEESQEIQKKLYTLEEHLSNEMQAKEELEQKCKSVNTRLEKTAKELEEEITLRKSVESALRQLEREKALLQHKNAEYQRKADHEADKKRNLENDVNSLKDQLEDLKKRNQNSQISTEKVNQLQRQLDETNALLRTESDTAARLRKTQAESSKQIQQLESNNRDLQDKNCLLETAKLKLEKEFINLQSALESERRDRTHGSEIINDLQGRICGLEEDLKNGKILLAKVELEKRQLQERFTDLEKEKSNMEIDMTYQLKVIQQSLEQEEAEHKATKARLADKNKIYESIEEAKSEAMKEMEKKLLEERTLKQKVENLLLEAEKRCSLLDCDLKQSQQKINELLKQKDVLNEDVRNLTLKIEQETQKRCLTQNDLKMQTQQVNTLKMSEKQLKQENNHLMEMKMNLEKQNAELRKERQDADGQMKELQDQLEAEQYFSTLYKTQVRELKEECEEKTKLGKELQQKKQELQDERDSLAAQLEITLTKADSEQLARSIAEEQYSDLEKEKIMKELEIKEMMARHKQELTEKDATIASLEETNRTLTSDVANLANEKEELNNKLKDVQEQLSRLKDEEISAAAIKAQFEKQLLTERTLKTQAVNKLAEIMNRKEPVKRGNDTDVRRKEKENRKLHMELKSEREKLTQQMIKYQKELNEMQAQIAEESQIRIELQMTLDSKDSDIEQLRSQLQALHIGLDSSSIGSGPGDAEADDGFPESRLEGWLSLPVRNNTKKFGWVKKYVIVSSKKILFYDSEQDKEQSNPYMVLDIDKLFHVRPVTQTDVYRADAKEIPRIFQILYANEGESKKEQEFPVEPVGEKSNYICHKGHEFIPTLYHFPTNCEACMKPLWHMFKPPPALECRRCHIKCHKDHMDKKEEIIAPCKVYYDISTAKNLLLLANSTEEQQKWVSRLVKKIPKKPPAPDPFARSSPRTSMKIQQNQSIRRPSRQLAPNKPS

The entries are a selection whose mix differs from that of the whole data set. Active and inactive are the calls of the source.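 Rule for the calls: active = inhibition above the screen-wide mean inhibition plus 3 SD (cut at about 18% in these data); inactive = the rest.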

The assay has as its target Rho-associated protein kinase 2 (Homo sapiens) (UniProt O75116). Briefly: inhibitors of human ROCK2 kinase, primary screen, biochemical, high-throughput, luminescence (AID 604).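 Note: plate controls were DMSO wells for no effect and Y-27632 control wells after no-enzyme background subtraction for full effect.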 Conditions: purified ROCK2, Kinase-Glo ATP depletion luminescence; at 6 µM; hits give high values. A general note: Kinase-Glo reads ATP consumption through a luciferase reaction.
As a reminder, the inhibition is the change of the read-out against control, counted positive when it falls. As for `Cc1ccc(C)c(NP(C)(=O)Oc2ccccc2)c1` (stereo unspecified), the inhibition is inactive: 8.3%. Turning to `Cc1nc2ccc3ccccc3c2s1.O=[N+]([O-])c1cc([N+](=O)[O-])c(O)c([N+](=O)[O-])c1`, the inhibition was inactive: 5.7%.

`CCOP(C)(=S)SCC(=O)NC(C)C(=O)O` (stereo unspecified): the inhibition was inactive: 0.2%.

Regarding `CP(=S)(Nn1cnnc1)Oc1ccccc1` (stereo unspecified), the inhibition was inactive: 7.2%. With `Cc1ccc(NP(C)(=O)Oc2ccccc2)c(C)c1` (stereo unspecified), the inhibition is inactive: -1.5%. Under `COc1ccccc1OP(C)(=O)Nc1ccc(C)cc1` (stereo unspecified) stands inactive: 6.6%; under `CP(=O)(Nc1ccccn1)Oc1ccccc1` (stereo unspecified), inactive: 5.7%; under `COc1ccccc1OP(C)(=O)Nc1ccc(C)c(C)c1` (stereo unspecified), inactive: 4.9%. `Cc1nc2ccc3ccccc3c2o1.O=[N+]([O-])c1cc([N+](=O)[O-])c(O)c([N+](=O)[O-])c1`: the inhibition is inactive: 0.3%. Then `CCN(CC)CC(O)COC(=O)C(O)(c1ccccc1)C1CCCCC1` (stereo unspecified), with inactive: 11.2%; and `COc1ccccc1OP(C)(=O)Nc1c(C)n(C)n(-c2ccccc2)c1=O` (stereo unspecified), with inactive: 3.1%.

Take `CP(=O)(Oc1ccccc1)N1CCOC1=O` (stereo unspecified): the inhibition is inactive: 5.7%.

Regarding `CCOP(C)(=S)SCC(=O)NC(C)(CC)C(=O)O` (stereo unspecified), the inhibition is inactive: 1.6%.

On to `Cc1ccccc1NP(C)(=O)Nc1ccccc1C`, for which the inhibition is inactive: 3.5%.

In the case of `CN(C)CCOC(=O)C(O)(c1ccccc1)C1CCCCC1` (stereo unspecified), the inhibition is inactive: 0.9%.

As to `CP(=O)(Nc1ccccc1F)Oc1ccccc1` (stereo unspecified), the inhibition is inactive: 3.5%.
